# GIV-Gai inh = blocks GIV peptide binding to rat Galpha-i3. P08753. Galpha-i3/FITC-GIV peptide fluorescence polarization, 90 min; hits give low values; scaled: aluminum fluoride 0%, vehicle 100%. percent of control (FP), % (concentration not given with the values). actives 0.42% (n = 210,000). AID 1224905;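 active = replicate mean at 85% of control or lower, very high polarization wells dropped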;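 also: wells of about 15 µL received 100 nL stock; the first replicate is given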
# HCMV NEC inh = inhibitors of HCMV UL50-UL53 nuclear egress complex interaction | HTRF UL50-UL53 interaction, normalized percent inhibition | inhibition, % (concentration not given with the values) | hit rate 0.15% among 190,000 | AID 1918969; in the data active means inhibition above about 27%, passing the limit was not always enough
# GIV Gai FP conf = confirmation of inhibitors of GIV binding to rat Galpha-i3 | hit rate 38% among 580 | shares compounds with GIV-Gai inh | FITC-GIV peptide binding to Galphai3, fluorescence polarization; hits give low values | fluorescence polarization, mP at 100 µM;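 active means inhibition score of 15 or more, meaning 100 minus mean polarization as percent of control over three replicates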;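 further: lower mP means peptide displaced from Galphai3 so more inhibition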
# GIV-Gai AS conf = GIV-Galpha-i3 inhibition, AlphaScreen confirmation. shares compounds with GIV-Gai inh. AlphaScreen Galphai3-GIV binding, purified proteins, 90 min; hits give low values. AlphaScreen counts at 100 µM. hit rate 39% among 580. AID 1259351;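 active means inhibition score at or above a set limit, where the score is 100 minus the three-replicate mean percent of control signal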
# Numbers without * were called inactive; / = not tested or not shown. Only some compounds are listed: those with a hit (about 0.46% of all), similar ones and a draw of the others.
# Sample of the layout, 3 compounds:
smiles	GIV-Gai inh	HCMV NEC inh	GIV Gai FP conf	GIV-Gai AS conf
Cc1ccc(CC(C#N)Sc2n[nH]c(-c3ccccc3F)n2)cc1 (stereo unspecified)	/	-7	/	/
COC(=O)c1c(NC(=O)c2cc(=O)c3ccccc3o2)sc2c1CCCC2	125	-21	59	43666
O=C(Nc1sc2c(c1C(=O)NCC1CCCO1)CCCC2)c1cc(=O)c2ccccc2o1 (stereo unspecified)	101	-16	/	/

# The listing, repeating the preview:
smiles	GIV-Gai inh	HCMV NEC inh	GIV Gai FP conf	GIV-Gai AS conf
Cc1ccc(CC(C#N)Sc2n[nH]c(-c3ccccc3F)n2)cc1 (stereo unspecified)	/	-7	/	/
COC(=O)c1c(NC(=O)c2cc(=O)c3ccccc3o2)sc2c1CCCC2	125	-21	59	43666
O=C(Nc1sc2c(c1C(=O)NCC1CCCO1)CCCC2)c1cc(=O)c2ccccc2o1 (stereo unspecified)	101	-16	/	/
COCc1nc2ccccc2n1CCOc1ccccc1C	108	0	/	/
COc1ccc(-c2nc3ccc(C(=O)N4CCN(c5ccccc5)CC4)cc3nc2-c2ccc(OC)c(OC)c2)cc1OC	102	/	/	/
CCOC(=O)N1CCN(C(=O)c2ccc3nc(-c4ccc(OC)c(OC)c4)c(-c4ccc(OC)c(OC)c4)nc3c2)CC1	84*	/	65	50289
Cn1c(C(=O)Nc2ccccc2F)cc2c(=O)oc3ccccc3c21	106	-4	/	/
CC1=NN(c2ccccc2)C(=O)C1C(c1ccc2c(c1)OCO2)C1C(=O)N(c2ccccc2)N=C1C (stereo unspecified)	72*	/	63	17537*
CC1=NN(c2ccccc2)C(=O)C1C(c1ccccc1)C(C#N)C#N (stereo unspecified)	106	/	/	/
CC1=C(C(=O)OC2CCCCC2)C(c2coc3ccc(Cl)cc3c2=O)C2=C(CC(C)(C)CC2=O)N1 (stereo unspecified)	92	-10	63	54497
CC1=C(C(=O)OC2CCCCC2)C(c2coc3ccc(Cl)cc3c2=O)C2=C(CCCC2=O)N1 (stereo unspecified)	105	-20	/	/
O=C1C=CC(=O)C(c2ccc(C(=O)O)cc2)=C1	70*	-8	55*	2443*
CC(C)c1ccc(C2=CC(=O)C=CC2=O)cc1	107	-10	/	/
O=C(O)c1cccc(S(=O)(=O)/N=C2/C=C(NS(=O)(=O)c3ccccc3)C(=O)c3ccccc32)c1	63*	/	62	12814*
O=C1C(NS(=O)(=O)c2ccccc2)=C/C(=N\S(=O)(=O)c2ccc(F)cc2)c2ccccc21	92	/	/	/

# The listing continues.
smiles	GIV-Gai inh	HCMV NEC inh	GIV Gai FP conf	GIV-Gai AS conf
O=[N+]([O-])c1cc(S(=O)(=O)O)cc2c1-c1c(cc(S(=O)(=O)O)cc1[N+](=O)[O-])C2	86	/	62	17742*
O=C1c2cc(S(=O)(=O)N3CCCCC3)cc([N+](=O)[O-])c2-c2c1cc(S(=O)(=O)N1CCCCC1)cc2[N+](=O)[O-]	109	/	/	/
Cc1cc2c(NC(=O)COCC(=O)O)cccc2nn1	73*	-28	55*	16084*
Cc1cc2c(NC(=O)CC(C)(C)CC(=O)O)cccc2nn1	98	-37	/	/
O=C(Cn1cc(/C=c2/sc3nc4ccccc4n3c2=O)c2ccccc21)Nc1ccccc1	108	/	/	/
COc1ccc(/C=c2/sc3nc4ccccc4n3c2=O)cc1	/	9	/	/
O=C(Cn1cc(/C=c2/sc3nc4ccccc4n3c2=O)c2ccccc21)N1CCCC1	80*	-27	78	43306
COc1ccc(OC)c(/C=c2\sc3nc4ccccc4n3c2=O)c1	89	-7	52*	38058
Cc1cc(-c2c(C)sc(C)c2S(=O)(=O)N2CCN(c3ccccc3F)CC2)n[nH]1	102	/	/	/
COc1ccccc1-c1nc2c3ccccc3ncn2n1	113	-16	/	/
COc1cccc(-c2nc3c4ccccc4ncn3n2)c1	78*	-9	66	41785
O=C(CN1C(=O)COc2ccc(S(=O)(=O)N3CCOCC3)cc21)NCCc1c[nH]c2ccccc12	99	-34	/	/
